Data: ChEMBL document CHEMBL4823278, “Metal binding 6-arylthio-3-hydroxypyrimidine-2,4-diones inhibited human cytomegalovirus by targeting the pUL89 endonuclease of the terminase complex” (Eur J Med Chem, 2021)

Tested on: not listed separately
Experiment: Cytotoxicity against human HEL 299 cells assessed as cell viability at 10 uM incubated for 168 hrs by MTS-based tetrazolium reduction assay relative to control
Details: read-out: Activity
For Cc1cc(-c2ccc(Sc3cc(=O)n(O)c(=O)[nH]3)cc2)ccc1F, the viability at 168 h, 10 µM was 77%.

Tested on: HEL 299
Details: human, hel 299, 168 h
Work on Cn1c(Sc2cccc3ccccc23)cc(=O)n(O)c1=O yielded a CC50 of 9 µM. In the case of COc1cccc(Sc2cc(=O)n(O)c(=O)n2C)c1, the CC50 is reported as 15.3 µM. With Cc1cc(-c2ccc(Sc3cc(=O)n(O)c(=O)[nH]3)cc2)ccc1F the CC50 was 9.4 µM. In the case of Cn1c(Sc2ccccc2Br)cc(=O)n(O)c1=O, the CC50 is reported as 23.6 µM. O=c1cc(Sc2cccc(-c3ccc(Cl)cc3)c2)[nH]c(=O)n1O showed a CC50 of 28.8 µM. Cn1c(Sc2ccc(Br)cc2)cc(=O)n(O)c1=O showed a CC50 of 26.6 µM. With CCn1c(Sc2ccc(F)cc2)cc(=O)n(O)c1=O the CC50 was 13.8 µM. With Cn1c(Sc2ccc(C(F)(F)F)cc2)cc(=O)n(O)c1=O the CC50 was 26.8 µM. With Cn1c(Sc2ccc(Cl)cc2)cc(=O)n(O)c1=O the CC50 was 19.4 µM. Work on Cn1c(Sc2cccc(C(F)(F)F)c2)cc(=O)n(O)c1=O yielded a CC50 of 20.7 µM.

Molecular target: T1, Tripartite terminase subunit 3 (Human betaherpesvirus 5, UniProt P16732)
T1 sequence (P16732 whole entry): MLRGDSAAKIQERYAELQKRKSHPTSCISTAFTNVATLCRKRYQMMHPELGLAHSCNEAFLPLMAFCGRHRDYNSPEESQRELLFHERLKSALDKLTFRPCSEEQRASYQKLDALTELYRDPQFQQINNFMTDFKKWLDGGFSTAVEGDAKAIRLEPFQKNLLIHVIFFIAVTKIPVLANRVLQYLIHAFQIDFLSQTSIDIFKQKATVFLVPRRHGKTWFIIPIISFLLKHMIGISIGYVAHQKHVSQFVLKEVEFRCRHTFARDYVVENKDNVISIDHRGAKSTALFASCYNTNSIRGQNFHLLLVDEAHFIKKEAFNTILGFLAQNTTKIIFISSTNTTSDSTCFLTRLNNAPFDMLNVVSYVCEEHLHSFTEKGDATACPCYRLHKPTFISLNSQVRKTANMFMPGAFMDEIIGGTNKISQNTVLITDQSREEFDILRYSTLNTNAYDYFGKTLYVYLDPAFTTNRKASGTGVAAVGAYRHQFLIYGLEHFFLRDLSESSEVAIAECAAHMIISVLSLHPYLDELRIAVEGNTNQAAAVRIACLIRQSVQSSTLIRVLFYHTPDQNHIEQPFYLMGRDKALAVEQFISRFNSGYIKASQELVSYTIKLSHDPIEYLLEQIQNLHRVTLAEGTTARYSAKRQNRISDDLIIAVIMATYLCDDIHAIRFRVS
Details: not given
O=C(O)c1cn(Cc2ccc(Cl)c(F)c2)cc(O)c1=O gave an IC50 of 3.5 µM.
